According to BindingDB's records for doi:10.1021/jm00073a009 (Harvard Medical School, 1993):

Biological target: Dihydrofolate reductase (Pneumocystis carinii) (UniProt P16184)
Experiment: Inhibition of dihydrofolate reductase in pneumocystis carinii.

Row | SMILES | IC50
1 | COc1ccc(OC)c(-c2sc3nc(N)nc(N)c3c2C)c1 [6-(2,5-Dimethoxy-phenyl)-5-methyl-thieno[2,3-d]pyrimidine-2,4-diamine] | 4.8 µM
2 | COc1ccc(OC)c(Cc2sc3nc(N)nc(N)c3c2C)c1 [6-(2,5-dimethoxybenzyl)-5-methylthieno[2,3-d]pyrimidine-2,4-diamine] | 14 µM
